The source made the active and inactive calls. The calls are words filed in the database; no cut-off is given here.
Assays:
[1] = molecular target: T1, Androgen receptor (Rattus norvegicus) (UniProt P15207); experiment: (§1) In vivo antagonist activity at AR in peripubertal castrated Sprague-Dawley rat assessed as inhibition of testosterone propionate-induced androgen-sensitive organ growth by measuring decrease in ventral prostate weight at 5 mg/kg, po QD for 10 days and measured 24 hrs post last dose by Hershberger's assay; format: functional, organism-based; conditions: time 11.0 day
T1 sequence (whole entry): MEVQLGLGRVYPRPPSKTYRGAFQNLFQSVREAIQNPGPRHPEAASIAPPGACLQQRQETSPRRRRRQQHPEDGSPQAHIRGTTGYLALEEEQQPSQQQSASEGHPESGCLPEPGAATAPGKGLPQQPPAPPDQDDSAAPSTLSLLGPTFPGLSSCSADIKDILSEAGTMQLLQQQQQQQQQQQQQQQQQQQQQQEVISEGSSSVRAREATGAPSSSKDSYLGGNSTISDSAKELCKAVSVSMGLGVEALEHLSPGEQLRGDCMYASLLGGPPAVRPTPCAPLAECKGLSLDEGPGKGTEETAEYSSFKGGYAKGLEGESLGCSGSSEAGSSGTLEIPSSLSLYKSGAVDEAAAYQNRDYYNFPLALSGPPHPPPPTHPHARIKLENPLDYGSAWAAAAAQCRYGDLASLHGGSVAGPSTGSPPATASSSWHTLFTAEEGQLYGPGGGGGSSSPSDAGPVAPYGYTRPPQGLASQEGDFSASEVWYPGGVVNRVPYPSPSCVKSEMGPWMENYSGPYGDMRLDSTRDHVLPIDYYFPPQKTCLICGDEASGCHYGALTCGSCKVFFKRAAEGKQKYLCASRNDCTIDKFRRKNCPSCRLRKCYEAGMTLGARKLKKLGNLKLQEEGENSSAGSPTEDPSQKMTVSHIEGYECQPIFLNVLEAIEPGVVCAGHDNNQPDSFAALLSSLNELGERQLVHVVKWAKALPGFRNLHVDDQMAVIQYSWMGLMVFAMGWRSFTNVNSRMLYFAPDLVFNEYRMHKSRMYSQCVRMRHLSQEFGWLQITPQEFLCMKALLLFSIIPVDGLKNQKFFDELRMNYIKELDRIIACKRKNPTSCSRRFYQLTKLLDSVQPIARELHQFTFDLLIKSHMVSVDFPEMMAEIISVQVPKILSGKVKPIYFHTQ

[2] = molecular target: T1, Androgen receptor (Rattus norvegicus); experiment: as §1, with “seminal vesicles and coagulating glands” for “ventral prostate”; format: functional, organism-based; conditions: time 11.0 day

Row | SMILES | Activity [1] | Activity [2]
1 | CNC(=O)c1cc2c(cc1F)C[C@]1(C2)C(=O)N(c2ccc(C#N)c(C(F)(F)F)c2)C(=S)N1C(C)C | Active | Active
2 | CNC(=O)c1cc2c(cc1F)CC1(C2)C(=O)N(c2ccc(C#N)c(C(F)(F)F)c2)C(=S)N1C(C)C (stereo unspecified) | Active | Active
3 | CNC(=O)c1cc2c(cc1F)C[C@@]1(C2)C(=O)N(c2ccc(C#N)c(C(F)(F)F)c2)C(=S)N1C(C)C | inactive | inactive
